Assay results published in patent publication US20160089545A1, “METHODS AND APPARATUS FOR DELIVERY OF MOLECULES ACROSS LAYERS OF TISSUE” (EP Technologies LLC, priority 2013, published 2016).

Test: Depth of permeation of fluorescently tagged molecules in plasma-treated porcine skin (plasmaporation)
Format: in vitro ADME
Description: A number of experiments were conducted and the experimental results and procedures were based on plasma treatment of porcine skin to transport dextran molecules tagged with fluorescent dyes, or proteins tagged with fluorescent dyes or nanoparticles tagged with fluorescent dyes through layers of the skin.
Porcine skin with intact stratum corneum (SC) from back of the ear and abdomen were used, which included both full thickness (non-fleshed) and split thickness (fleshed) skin. The skin was kept at −80° C. until the day of treatment. On the day of treatment the skin was thawed to room temperature and kept in a humidified box for 1 hour. Prior to plasma application the hair was removed with a hair clipper and the skin was shaved. The skin was washed with soap and pat-dried with paper towels. The skin from back of the ear was cut in to 1″×1″ pieces and the skin from the abdomen was cut in to 2″×2″ pieces. The pieces of skin were kept in a humidified box on wet paper towels to maintain constant humidity.
Lysine fixable fluorescently tagged dextran molecules having molecular weights of 3, 10, 40 and 70 kDa were also used. […]
After treatment, 5-10 mm punch biopsies were obtained from control samples and plasma treated samples. […] Morphological analysis and depth of permeation analysis was carried out on an EVOS inverted fluorescence enabled microscope (AMG Microscope). […]

In the case of “albumin: albumin (66 kDa) tagged with green fluorescence”, the “depth up to which predominately localized in the epidermis” value is reported as 75-100 μm.
